# Results reported in patent US7122558B2 (priority 2000, dated 2006).
# Chains of the proteins cited; added tags and fusions are not shown.
# UniProt P20309, whole entry, looked up: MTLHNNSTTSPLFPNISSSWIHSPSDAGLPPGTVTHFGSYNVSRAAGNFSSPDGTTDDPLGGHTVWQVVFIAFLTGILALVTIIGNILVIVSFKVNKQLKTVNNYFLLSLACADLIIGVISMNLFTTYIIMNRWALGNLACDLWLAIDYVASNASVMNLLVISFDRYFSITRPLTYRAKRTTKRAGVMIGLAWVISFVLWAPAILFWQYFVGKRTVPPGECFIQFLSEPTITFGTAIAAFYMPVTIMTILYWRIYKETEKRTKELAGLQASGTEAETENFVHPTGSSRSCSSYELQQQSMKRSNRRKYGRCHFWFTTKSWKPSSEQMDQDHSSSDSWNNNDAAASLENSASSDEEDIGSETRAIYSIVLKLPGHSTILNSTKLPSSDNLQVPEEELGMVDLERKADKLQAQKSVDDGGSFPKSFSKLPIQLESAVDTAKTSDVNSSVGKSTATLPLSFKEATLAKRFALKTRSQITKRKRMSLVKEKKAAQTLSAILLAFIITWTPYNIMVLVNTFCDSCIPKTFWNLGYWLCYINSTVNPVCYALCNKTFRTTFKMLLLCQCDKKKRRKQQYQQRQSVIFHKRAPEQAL
# Target: human muscarinic receptors M3 (Homo sapiens, UniProt P20309)
# Experiment: binding of [3H]-NMS to human muscarinic receptors M3 (CHO-K1 membranes)
# Conditions: inhibition of [3H]-NMS binding, compound at 1.00E−08 M (10 nM), 25° C
structure (smiles),measurement,value
C=CCC(O)(C(=O)O[C@H]1C[N+]2(CCCc3cccs3)CCC1CC2)c1cccs1.O=C([O-])C(F)(F)F (stereo partly shown),% INHIBITION concentration: 1.00E−08 M,39.0%
